Rows were chosen to be rich in hits. Some 1.7% of all compounds tested hit in one or more screens of this group.
HEK293 tox – cytotoxic in the GLP-1 receptor inverse agonist counter-screen; Potency, µM (highest dose often 38.3 µM), for the others: at the top dose activity change, negative = inhibition, actives largely listed as inhibitors; actives 0.13% (n = 410,000); HEK293 cAMP-luciferase reporter cells, luminescence, 24 h; AID 624418;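 further: loss of luciferase light is scored as toxicity; potency means the concentration at half of the fitted maximal effect; on the % scale 0 is the no-effect control and ±100 the full control effect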
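Seeding density was 200 cells/uL; after overnight-length (12 h) culture, 23 nL compounds went on for 24 h at 37 °C. Readout used a luciferase detection reagent, luminescence taken after 12 min at room temperature.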
GLP-1R inv ag – inverse agonists of human GLP-1 receptor; HEK293 GLP-1R CRE-luciferase, luminescence, 24 h; GLP-1R form is constitutively active; P43220; Potency, µM (series often up to 38.3 µM), for the others: at the highest dose activity change, negative = inhibition, hits mostly inhibitors; actives 1.6% (n = 410,000); further: potency means the concentration at half of the fitted maximal effect; on the % scale 0 is the no-effect control and ±100 the full control effect; nearly all actives have a fitted effect of over 55% in size
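Assay principle: reduced luminescence from a cAMP-responsive reporter in HEK293 cells co-expressing a constitutively active GLP-1R. Conditions: 24 hr compound incubation, 37 deg C, 5% CO2.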
PTHR1 agonist – activates the human parathyroid hormone receptor PTHR1 | Q03431 | HEK293 GP2 PTHR1 cells, GloSensor cAMP luminescence, 1 h | Potency, µM (titrated, usually from 115 µM), for the others: at the top dose activation, actives largely listed as activators | actives 0.075% (n = 410,000); further: potency means the concentration at half of the fitted maximal effect; nearly all actives have a fitted effect of over 55% in size
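HEK-293-derived GP2 cells expressing PTHR1 and a GloSensor cAMP reporter, 3,000/well, plated overnight, given luciferin plus IBMX (each 0.5 mM as added) for 1 h at 37 °C, then compound for 1 h at 37 °C. Luminescence was read after 15 min at room temperature.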
GLP1R ag – agonists of human GLP-1 receptor | HEK293 GLP-1R CRE-luciferase, luminescence, 4-6 h; cells express a hypersensitive GLP-1R form | AID 624172 | actives 0.007% (n = 380,000) | P43220 | Potency, µM (top dose mostly 45.6 µM), for the others: at the top dose activation, hits mostly activators; further: potency means the concentration at half of the fitted maximal effect; % of control where 0% means no effect
miR-21 reporter – raises the signal of a miR-21 reporter | HeLa miR-21 FLuc reporter, luciferase, 48 h | Potency, µM (highest dose often 38.3 µM), inactives show at the highest dose reporter change, positive = more light | 340,000 tested, under 10 active | AID 2288; active = well fitted rising curve with a large enough effect; inconclusive = small, poorly fitted or top-dose-only effect; inactive = no such curve, though single readings can be large or run the other way;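 note: % of control where 0% means no effect; miR-21 action dims this reporter so a rising signal means less miR-21 action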
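HeLa cells endogenously expressing miR-21, stably carrying CMV-driven firefly luciferase with a downstream miR-21 binding site, 2000 cells/well. Titrations up to approximately 40 uM, 48 hours; luciferase luminescence read.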
Pin1 inhibitor – blocks the human prolyl isomerase Pin1 | Potency, µM (doses to about 115 µM), inactives show top-dose activity, negative = inhibition, hits mostly inhibitors | actives 0.009% (n = 390,000) | AID 504891 | Pin1 FP peptide displacement, HiFluor488, 10 min | Q13526; active means well fitted inhibition curve with a large enough effect in the polarisation, with a control signal flat, not every such curve was filed as active; inconclusive means small, poorly fitted or top-dose-only effect, or effect the other way, or a change in a side signal; inactive means no such curve, though single readings can be large or run the other way; the % refers to the polarisation; further: potency means the concentration at half of the fitted maximal effect; on the % scale 0 is the no-effect control and ±100 the full control effect
Numbers without * were called inactive; i = inactive; ? = inconclusive; . = no result; [ ] = another dose, or the depositor's remark. Unless noted, the call rests on the fitted dose curve; in most records, active means well fitted curve in the direction sought with a large enough effect; inconclusive means small, poorly fitted or top-dose-only effect, or another doubt; inactive means no such curve, though single readings can be large; an effect the other way counts as inactive or inconclusive.

SMILES	HEK293 tox	GLP-1R inv ag	PTHR1 agonist	GLP1R ag	miR-21 reporter	Pin1 inhibitor
CCC[C@@H]1CC(C(=O)NC(C2O[C@H](SC)C(OP(=O)(O)O)[C@H](O)[C@H]2O)[C@H](C)Cl)N(C)C1 (stereo not given in full)	.	.	.	7%	.	.
CCN1C(=O)[C@H]2[C@@H](c3ccc(-c4cccc(Cl)c4)cc3)N3CCCC[C@@]3(C(=O)OC)[C@H]2C1=O	-24%	10µM*	-8%	-1%	.	64%
CCN1C(=O)[C@H]2[C@@H](c3ccc(-c4cccc(Cl)c4)c(OC)c3)N3CCCC[C@@]3(C(=O)OC)[C@H]2C1=O	-21%	?	-41%	-3%	.	-1%
CCN1C(=O)[C@H]2[C@@H](c3ccc(-c4ccc(F)cc4)cc3)N3CCCC[C@@]3(C(=O)OC)[C@H]2C1=O	8%	5.6µM*	-13%	-6%	.	40%
CCN1C(=O)[C@H]2[C@@H](c3ccc(-c4cccc(Cl)c4)c(OC)c3)N[C@@](CC(C)C)(C(=O)OC)[C@H]2C1=O	-2%	7.9µM*	-1%	-6%	.	4%
Cc1ccc(Cl)cc1NS(=O)(=O)c1ccc2oc(=O)c3ncn(C)c3c2c1	?	-27%	-97%	.	5%	6%
CCC(C)N(C(=O)c1csnn1)C(C(=O)NC1CCCC1)c1ccc(F)cc1 (stereo not given)	20%	-6%	i	6%	-1%	-2%
CC(C)CCN(C(=O)c1csnn1)C(C(=O)NC1CCCCC1)c1ccc(F)cc1 (stereo not given)	-4%	10µM*	-3%	38%	2%	-9%
O=C(Nc1ncccn1)c1ccc(Cl)c([N+](=O)[O-])c1	-12%	?	50µM*	-5%	22%	7%
O=C(Nc1ccc(Nc2ccccc2)cc1)c1ccc(Cl)c([N+](=O)[O-])c1	?	?	-36%	0%	20%	-3%
CN(C)c1ccc(CNC(=O)c2cnc3sc(N4CCOCC4)nn3c2=O)cc1	0%	4%	i	.	-2%	3%
CNCCC=C1c2ccccc2C=Cc2ccccc21	6%	5µM*	i	27%	.	0%
CN(C)CCC=C1c2ccccc2C=Cc2ccccc21	?	?	-8%	3%	.	2%
N#Cc1nc(Cc2ccccc2)oc1N1CCCC1	-1%	6%	-2%	37%	-56%	1%
CC1CC(C)CN(c2oc(Cc3ccccc3)nc2C#N)C1 (stereo not given)	106%	11µM*	-32%	13%	-17%	?
CCOC(=O)c1ccc(N=c2sc(C(=O)OC)cc(=O)n2Cc2ccco2)cc1	?	4.5µM*	-6%	7%	-16%	?
Cc1cc(N2C(=O)c3ccccc3C2=O)n[nH]1	.	.	.	.	.	-6%
O=C(c1ccco1)N1CCN(c2nc(C3CC3)nc3c2nnn3Cc2ccccc2Cl)CC1	3%	10µM*	-18%	7%	6%	12%
O=C(c1ccco1)N1CCC(c2nc3c(nnn3Cc3ccccc3Cl)c(=O)[nH]2)CC1	-15%	49%	i	15%	-9%	2%
CC1(C)Cc2cccc(C(=O)Nc3ccncc3)c2O1	-4%	-14%	-22%	18%	4%	0%

Brought forward from above: four entries, followed by the next part.
SMILES	HEK293 tox	GLP-1R inv ag	PTHR1 agonist	GLP1R ag	miR-21 reporter	Pin1 inhibitor
Cc1cc(N2C(=O)c3ccccc3C2=O)n[nH]1	.	.	.	.	.	-6%
O=C(c1ccco1)N1CCN(c2nc(C3CC3)nc3c2nnn3Cc2ccccc2Cl)CC1	3%	10µM*	-18%	7%	6%	12%
O=C(c1ccco1)N1CCC(c2nc3c(nnn3Cc3ccccc3Cl)c(=O)[nH]2)CC1	-15%	49%	i	15%	-9%	2%
CC1(C)Cc2cccc(C(=O)Nc3ccncc3)c2O1	-4%	-14%	-22%	18%	4%	0%
CC1(C)Cc2cccc(C(=O)Nc3ccc(Cl)cc3)c2O1	-3%	11µM*	-10%	2%	1%	1%
COc1ccc(C(=O)/C(Br)=C/C(=O)O)cc1	.	.	.	0%	.	.
CC(C)(C)C1COc2ccccc2N1C(=O)c1ccccc1Cl (stereo not given)	-10%	8.9µM*	-21%	2%	10%	5%
COc1ccccc1NC(=O)Nc1nc(CC(=O)N2CCN(c3ccccc3F)CC2)cs1	-12%	10µM*	-72%	-1%	.	25%
COc1ccccc1NC(=O)Nc1nc(CC(=O)NCc2c(F)cccc2F)cs1	?	?	-48%	8%	.	3%
CCOc1cc(CNCCCN2CCOCC2)cc(Br)c1OCc1ccccc1Cl	?	4.5µM*	-22%	5%	?	1%
COc1cccc(-c2csc(N3CCN(CC(=O)NNC(=O)c4ccc(Br)cc4)CC3)n2)c1	4%	11µM*	-35%	-3%	8%	19%
COc1cccc(-c2csc(N3CCN(C(=S)Nc4cccc(Cl)c4)CC3)n2)c1	-7%	10µM*	-15%	-7%	2%	?
COc1cccc(-c2csc(N3CCN(CC(=O)NNC(=O)c4ccc(Cl)cc4)CC3)n2)c1	1%	0%	-34%[57.5 µM]	-2%	6%	-5%
CC(C)c1ccc(Nc2c(-c3ccccc3O)nc3cnccn23)cc1	1%	10µM*	-47%	-7%	?	0%
O=C(CCn1c(=O)c2ccccc2n(CC(=O)Nc2ccc(F)cc2)c1=O)NCCc1ccccc1	7%	-1%	-24%	-4%	1%	5%
Cc1cccc(NC(=S)NCCc2ccccc2)n1	4µM*	?	-16%	16%	3%	1%
S=C(NCCc1ccccc1)Nc1ccccn1	-12%	?	-4%	2%	-48%	-5%
C/C(=N\NC(=S)NCCc1ccccc1)c1ccc(Cl)cc1	?	10µM*	-5%	?	6%	-2%
C/C(=N\NC(=S)NCCc1ccccc1)c1ccc(C)cc1	10µM*	?	i	2%	-2%	?
Cc1ccc(C)c(Cn2cnc3ccccc3c2=O)c1	1%	?	-62%	1%	0%	2%
CC12CCC=CC1=C(C=O)C1C2CCC2(C)C(O)CCC12 (stereo not given)	?	11µM*	-11%	8%	.	-1%
O=C(COC(=O)CNC(=O)C1CCCCC1)NC1CCCC1	.	.	.	.	.	2%
Cc1ccc(F)cc1NC(=O)N1CCN(C2c3ccccc3-c3ccccc32)CC1	3%	13µM*	i	2%	-3%	2%
Cc1ccc2nc(SC(Cc3cc(Cl)ccc3Cl)C(=O)O)[nH]c2c1 (stereo not given)	1%	-12%	i	.	-6%	.
CCCCNC(=O)c1sc2nc(C)cc(COC)c2c1-n1cccc1	-19%	8.9µM*	-10%	-6%	7%	-9%
COCc1cc(C)nc2sc(C(=O)NN)c(-n3cccc3)c12	20%	13%	-11%	0%	-24%	-3%
Cc1ccc(C(=O)NCC(=O)OCC(=O)c2cccc3ccccc23)cc1	.	.	.	.	.	0%
COc1ccc(-c2nc(C)c(CCNS(=O)(=O)c3cc(C)c(C)cc3C)s2)cc1	4%	?	-35%	16%	13%	4%

Arranged by value in Pin1 inhibitor (smallest number first): three of the compounds above
SMILES	GLP-1R inv ag	PTHR1 agonist	GLP1R ag	miR-21 reporter	Pin1 inhibitor
CC12CCC=CC1=C(C=O)C1C2CCC2(C)C(O)CCC12 (stereo not given)	11µM*	-11%	8%	.	-1%
COc1ccccc1NC(=O)Nc1nc(CC(=O)NCc2c(F)cccc2F)cs1	?	-48%	8%	.	3%
O=C(c1ccco1)N1CCN(c2nc(C3CC3)nc3c2nnn3Cc2ccccc2Cl)CC1	10µM*	-18%	7%	6%	12%
